Test results published in patent publication US20060205037A1 (published 2006).

T1: rat GLP-1 receptor (CHO cells transfected with the rat GLP-1 receptor) (rat, UniProt P32301 22-463)
T1 sequence (looked up): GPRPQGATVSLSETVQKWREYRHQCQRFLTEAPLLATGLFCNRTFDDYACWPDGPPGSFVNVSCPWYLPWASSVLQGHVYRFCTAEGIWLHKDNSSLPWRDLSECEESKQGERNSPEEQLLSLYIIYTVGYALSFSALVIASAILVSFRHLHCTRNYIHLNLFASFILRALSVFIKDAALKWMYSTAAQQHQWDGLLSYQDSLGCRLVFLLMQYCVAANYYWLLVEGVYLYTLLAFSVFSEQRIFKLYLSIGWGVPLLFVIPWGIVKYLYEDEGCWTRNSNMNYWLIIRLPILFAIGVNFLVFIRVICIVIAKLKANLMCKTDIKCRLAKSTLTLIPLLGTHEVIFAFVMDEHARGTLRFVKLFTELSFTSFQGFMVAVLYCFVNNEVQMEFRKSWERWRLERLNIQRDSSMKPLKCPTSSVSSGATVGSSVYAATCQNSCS

B1: ΔL GLP-1(7-36) (SGGG)3 linker mTf (other)
chain: HAEGTFTSDVSSYLEGQAAKEFIAWLVKGRSGGGSGGGSGGGVPDKTVRWCAVSEHEATKCQSFRDHMKSVIPSDGPSVACVKKASYLDCIRAIAANEADAVTLDAGLVYDAYLAPNNLKPVVAEFYGSKEDPQTFYYAVAVVKKDSGFQMNQLRGKKSCHTGLGRSAGWNIPIGLLYCDLPEPRKPLEKAVANFFSGSCAPCADGTDFPQLCQLCPGCGCSTLNQYFGYSGAFKCLKDGAGDVAFVKHSTIFENLANKADRDQYELLCLDNTRKPVDEYKDCHLAQVPSHTVVARSMGGKEDLIWELLNQAQEHFGKDKSKEFQLFSSPHGKDLLFKDSAHGFLKVPPRMDAKMYLGYEYVTAIRNLREGTCPEAPTDECKPVKWCALSHHERLKCDEWSVNSVGKIECVSAETTEDCIAKIMNGEADAMSLDGGFVYIAGKCGLVPVLAENYNKADNCEDTPEAGYFAVAVVKKSASDLTWDNLKGKKSCHTAVGRTAGWNIPMGLLYNKINHCRFDEFFSEGCAPGSKKDSSLCKLCMGSGLNLCEPNNKEGYYGYTGAFRCLVEKGDVAFVKHQTVPQNTGGKNPDPWAKNLNEKDYELLCLDGTRKPVEEYANCHLARAPNHAVVTRKDKEACVHKILRQQQHLFGSNVADCSGNFCLFRSETKDLLFRDDTVCLAKLHDRNTYEKYLGEEYVKAVGNLRKCSTSSLLEACTFRRP
B2: nL GLP-1 (7-37; A8G, K34A) (PEAPTD)2 mTf (other)
chain: HGEGTFTSDVSSYLEGQAAKEFIAWLVAGRGPEAPTDPEAPTDVPDKTVRWCAVSEHEATKCQSFRDHMKSVIPSDGPSVACVKKASYLDCIRAIAANEADAVTLDAGLVYDAYLAPNNLKPVVAEFYGSKEDPQTFYYAVAVVKKDSGFQMNQLRGKKSCHTGLGRSAGWNIPIGLLYCDLPEPRKPLEKAVANFFSGSCAPCADGTDFPQLCQLCPGCGCSTLNQYFGYSGAFKCLKDGAGDVAFVKHSTIFENLANKADRDQYELLCLDNTRKPVDEYKDCHLAQVPSHTVVARSMGGKEDLIWELLNQAQEHFGKDKSKEFQLFSSPHGKDLLFKDSAHGFLKVPPRMDAKMYLGYEYVTAIRNLREGTCPEAPTDECKPVKWCALSHHERLKCDEWSVNSVGKIECVSAETTEDCIAKIMNGEADAMSLDGGFVYIAGKCGLVPVLAENYNKADNCEDTPEAGYFAVAVVKKSASDLTWDNLKGKKSCHTAVGRTAGWNIPMGLLYNKINHCRFDEFFSEGCAPGSKKDSSLCKLCMGSGLNLCEPNNKEGYYGYTGAFRCLVEKGDVAFVKHQTVPQNTGGKNPDPWAKNLNEKDYELLCLDGTRKPVEEYANCHLARAPNHAVVTRKDKEACVHKILRQQQHLFGSNVADCSGNFCLFRSETKDLLFRDDTVCLAKLHDRNTYEKYLGEEYVKAVGNLRKCSTSSLLEACTFRRP
B3: ΔL GLP-1(7-36) GLP-2 linker-mTf (other)
chain: HAEGTFTSDVSSYLEGQAAKEFIAWLVKGRHADGSFSDEMNTILDNLAARDFINWLIQTKITDRVPDKTVRWCAVSEHEATKCQSFRDHMKSVIPSDGPSVACVKKASYLDCIRAIAANEADAVTLDAGLVYDAYLAPNNLKPVVAEFYGSKEDPQTFYYAVAVVKKDSGFQMNQLRGKKSCHTGLGRSAGWNIPIGLLYCDLPEPRKPLEKAVANFFSGSCAPCADGTDFPQLCQLCPGCGCSTLNQYFGYSGAFKCLKDGAGDVAFVKHSTIFENLANKADRDQYELLCLDNTRKPVDEYKDCHLAQVPSHTVVARSMGGKEDLIWELLNQAQEHFGKDKSKEFQLFSSPHGKDLLFKDSAHGFLKVPPRMDAKMYLGYEYVTAIRNLREGTCPEAPTDECKPVKWCALSHHERLKCDEWSVNSVGKIECVSAETTEDCIAKIMNGEADAMSLDGGFVYIAGKCGLVPVLAENYNKADNCEDTPEAGYFAVAVVKKSASDLTWDNLKGKKSCHTAVGRTAGWNIPMGLLYNKINHCRFDEFFSEGCAPGSKKDSSLCKLCMGSGLNLCEPNNKEGYYGYTGAFRCLVEKGDVAFVKHQTVPQNTGGKNPDPWAKNLNEKDYELLCLDGTRKPVEEYANCHLARAPNHAVVTRKDKEACVHKILRQQQHLFGSNVADCSGNFCLFRSETKDLLFRDDTVCLAKLHDRNTYEKYLGEEYVKAVGNLRKCSTSSLLEACTFRRP

Columns and labels:
[1] = biological target: T1, rat GLP-1 receptor (CHO cells …); experiment: cell-based or functional assay
[2] = biological target: GLP-1 receptor (CHO/GLP-1R cells, stably transfected CHO cells); experiment: cell-based or functional assay

Row | Binder | cAMP assay, Activity (nM) (EC50) [1] | intracellular cAMP in CHO/GLP-1R cells, EC50 [2] [nM]
1 | B1 | 2.27 | –
2 | B2 | – | 2.28
3 | B3 | 5.9 | –
